The target in the experiment is L-lactate dehydrogenase A chain (Homo sapiens, UniProt P00338). Briefly: Inhibition of LDHA in human Med1 cells using pyruvate as substrate incubated 10 mins by spectrophotometric analysis. Type of experiment: cell-based, Medulloblastoma cell.

In turn, `NC(=O)C(=O)O` [SODIUM OXAMATE] came in with an IC50 of 16.5 µM. This counts as double-digit micromolar.

Values taken from ChEMBL document CHEMBL5113506, “Discovery of novel human lactate dehydrogenase inhibitors: Structure-based virtual screening studies and biological assessment” (Eur J Med Chem, 2022).
